From article PMC4382182, “Characterization of Phospho-(Tyrosine)-Mimetic Calmodulin Mutants” (PLoS ONE, 2015)

Biological target: endothelial nitric oxide synthase (eNOS) (bovine recombinant baculovirus-expressed in Sf9 cells) (bovine) (UniProt P29473)

Kact of CaM for the activation of eNOS (eNOS activity at increasing concentrations of CaM) [µM] | Substance
0.1 | CaM(Y99E/Y138E) (from UniProt P0DP30 1-149) (natural protein)
0.1 | wild type calmodulin (CaM) (from UniProt P0DP30 1-149) (natural protein)
